# Laboratory results published in PubChem BioAssay AID938 (National Center for Advancing Translational Sciences (NCATS), 2007).
# The entries are a selection whose mix differs from that of the whole data set. Some results for these compounds are left out of this collection, so the calls shown say nothing about other tests. Results filed as inconclusive are left out. Active and inactive are the calls of the source. The call rests on the fitted dose curve; in most records, active means well fitted activation curve with a large enough effect; inconclusive means small, poorly fitted or top-dose-only effect; inactive means no such curve, though single readings can be large or run the other way.
# Assay: qHTS Assay for Agonists of the Thyroid Stimulating Hormone Receptor: Activators of Intracellular cAMP Concentrations in Parental HEK 293; further: % of control where 0% means no effect; nearly all actives have a fitted effect of over 55% in size
# Conditions: parental HEK293 CNG cAMP sensor, membrane potential fluorescence; at 11.4 µM unless noted
row,SMILES,activation
1,CN1CCC[C@H](OC(=O)[C@](O)(c2ccccc2)C2CCCC2)C1,inactive: 7.83%
2,CN1CC[C@H](OC(=O)[C@](O)(c2ccccc2)C2CCCC2)C1,inactive: 7.52%
3,C=C(C)C#C[C@@](O)(C(=O)OC1CCN(C)CC1)c1ccccc1,inactive: 9.65%
4,CN(C)c1cccc(C(=O)NCC2(N(C)C)CCCCC2)c1,inactive: 7.17% [at 57.1 µM]
